# Test results published in PubChem BioAssay AID651965 (National Center for Advancing Translational Sciences (NCATS), 2013).
# Protein sequences, listed by entry. Tags and fused reporters are not part of them.
# UniProt P80244, whole entry: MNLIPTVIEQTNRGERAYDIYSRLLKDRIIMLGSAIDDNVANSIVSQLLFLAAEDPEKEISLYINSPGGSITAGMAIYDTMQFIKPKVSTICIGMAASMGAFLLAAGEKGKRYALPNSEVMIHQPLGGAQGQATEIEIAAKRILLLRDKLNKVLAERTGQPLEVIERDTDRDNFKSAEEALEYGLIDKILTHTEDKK
# Only a part is listed here, and it is no random draw. Records with an inconclusive call do not appear. Active and inactive are the calls of the source. Calls follow the shape of the dose curve; as a rule, active = well fitted falling curve with a large enough effect; inconclusive = small, poorly fitted or top-dose-only effect; inactive = no such curve, though single readings can be large or run the other way.
# Target: ATP-dependent Clp protease proteolytic subunit (Bacillus subtilis (strain 168)) (UniProt P80244)
# Assay: qHTS Assay for Activators of ClpP; also: the source files actives as falling curves though it sought activators and does not explain the sign; nearly all actives have a fitted effect of over 65% in size
# Conditions: purified B. subtilis ClpP, FRET peptide cleavage, 20 min; at 57.5 µM (top of the series)
row,SMILES,"activity change, negative = active"
1,c1cc(-c2nn[nH]n2)ccc1-c1nn[nH]n1,inactive: 0.337%
2,COc1cc([N+](=O)[O-])c([N+](=O)[O-])cc1OC,inactive: 0.289%
3,CC(C)c1nc(Nc2ccccc2)n(P(=O)(N(C)C)N(C)C)n1,inactive: 1.23%
4,CN(C)C(=O)c1c([N+](=O)[O-])cc([N+](=O)[O-])cc1[N+](=O)[O-],inactive: 0.737%
5,CN(C)C(=O)OCCc1n(C)cc[n+]1C,inactive: 0.487%
6,CP(=O)(Nc1ccc(Cl)cc1)Oc1ccc(F)cc1 (centres undefined),inactive: 1.39%
7,COc1ccccc1OP(C)(=O)Nc1ccccc1Br (centres undefined),inactive: 1.98%
8,CC(C)(C)c1ccc(OP(C)(=O)O)cc1,inactive: -0.663%
9,C[N+]1=C2C=CC=CC=C2SC12C([N+](=O)[O-])=CC([N+](=O)[O-])=C[C-]2[N+](=O)[O-] (centres undefined),inactive: 0.0795%
10,CN1CCCC(OC(=O)C(c2ccccc2)c2ccccc2)C1 (centres undefined),inactive: 1.14%
11,CN(C)CCOC(=O)C(O)(c1ccccc1)C1CCCC1 (centres undefined),inactive: -0.565%
12,COc1ccc(OP(C)(=O)Nc2ccccn2)cc1 (centres undefined),inactive: 0.179%
13,Cc1ccc(OP(=O)(Nc2nccs2)Oc2ccc(C)cc2)cc1,inactive: 0.404%
14,CN(C(=O)Cc1ccc(Cl)c(Cl)c1)[C@H]1CCCC[C@H]1N1CCCC1,inactive: -1.21%
15,NC(=O)c1cc([N+](=O)[O-])cc([N+](=O)[O-])c1N,inactive: 1.7%
16,O=[N+]([O-])c1cc2c(cc1[N+](=O)[O-])OCO2,inactive: 1.88%
17,CCc1ccc(OP(C)(=O)O)cc1,inactive: -12.7%
18,O=[N+]([O-])C1C(O)C(O)C([N+](=O)[O-])C(O)C1O (centres undefined),inactive: 0.126%
19,CP(=O)(Nc1ccccn1)Oc1ccccc1 (centres undefined),inactive: -9.77%
20,COc1ccccc1OP(C)(=O)Nc1ccc(C)cc1C (centres undefined),inactive: -3.76%
21,Oc1ccccc1CNc1ccccn1,inactive: -17%
22,Cc1c(NP(C)(=O)Oc2ccc(C(C)C)cc2)c(=O)n(-c2ccccc2)n1C (centres undefined),inactive: 0.987%
23,Nc1cc(N)c2nonc2c1[N+](=O)[O-],inactive: -0.229%
24,CC(C)CC(=O)NC(Sc1ccc(Cl)cc1)C(Cl)(Cl)Cl (centres undefined),inactive: -0.617%
25,COc1ccc(OP(C)(=O)Nc2ccccc2Br)cc1 (centres undefined),inactive: 1.09%
26,Cc1cc(SC(NC(=O)c2ccc(F)cc2)C(Cl)(Cl)Cl)ncn1 (centres undefined),inactive: -2.59%
27,CCOP(=O)(Nc1ccccc1)OCC,inactive: 0.806%
28,COc1ccccc1OP(C)(=O)Nc1ccc(C)c(C)c1 (centres undefined),inactive: -0.18%
29,CN(C(=O)Cc1ccc(Cl)c(Cl)c1)[C@H]1CCCC[C@@H]1N1CCCC1,inactive: -1.07%
